The results in this text go back to ChEMBL document CHEMBL1139869, “Design and synthesis of novel quinolinone-3-aminoamides and their alpha-lipoic acid adducts as antioxidant and anti-inflammatory agents” (2007).

The nature of assay [1]: Antioxidant activity assessed as DPPH reducing activity at 0.1 mM after 20 mins. The assay is classed as functional. More on the design: scale not given: the % may be the effect or the level left. The gist of the method: (§1)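 DPPH in absolute ethanol was mixed with an equal volume of compound in ethanol (0.1 or 0.5 mM); ethanol served as control. Absorbance at 517 nm was read after 20 and 60 min at room temperature. At least triplicate.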
(In general: The DPPH test is a chemical assay of radical scavenging.)

Assay [2] can be described thus: Antioxidant activity assessed as DPPH reducing activity at 0.1 mM after 60 mins. More on the design: scale not given: the % may be the effect or the level left. It is filed as functional. The gist of the method: as §1

Consider `CC(Cc1ccc(O)c(O)c1)C(C)Cc1ccc(O)c(O)c1` (configuration not stated), for which the values for the Activity in assay [1] and in assay [2] were 81% and 82.6%, respectively.
